# Biological target: human ether-a-go-go (hERG) potassium channel (Homo sapiens, UniProt Q12809)
# The chains behind the UniProt entries cited, without tags or fusion partners. Where a name states a change or a piece, a line headed by the entry shows the natural chain unless it says otherwise.
# UniProt Q12809: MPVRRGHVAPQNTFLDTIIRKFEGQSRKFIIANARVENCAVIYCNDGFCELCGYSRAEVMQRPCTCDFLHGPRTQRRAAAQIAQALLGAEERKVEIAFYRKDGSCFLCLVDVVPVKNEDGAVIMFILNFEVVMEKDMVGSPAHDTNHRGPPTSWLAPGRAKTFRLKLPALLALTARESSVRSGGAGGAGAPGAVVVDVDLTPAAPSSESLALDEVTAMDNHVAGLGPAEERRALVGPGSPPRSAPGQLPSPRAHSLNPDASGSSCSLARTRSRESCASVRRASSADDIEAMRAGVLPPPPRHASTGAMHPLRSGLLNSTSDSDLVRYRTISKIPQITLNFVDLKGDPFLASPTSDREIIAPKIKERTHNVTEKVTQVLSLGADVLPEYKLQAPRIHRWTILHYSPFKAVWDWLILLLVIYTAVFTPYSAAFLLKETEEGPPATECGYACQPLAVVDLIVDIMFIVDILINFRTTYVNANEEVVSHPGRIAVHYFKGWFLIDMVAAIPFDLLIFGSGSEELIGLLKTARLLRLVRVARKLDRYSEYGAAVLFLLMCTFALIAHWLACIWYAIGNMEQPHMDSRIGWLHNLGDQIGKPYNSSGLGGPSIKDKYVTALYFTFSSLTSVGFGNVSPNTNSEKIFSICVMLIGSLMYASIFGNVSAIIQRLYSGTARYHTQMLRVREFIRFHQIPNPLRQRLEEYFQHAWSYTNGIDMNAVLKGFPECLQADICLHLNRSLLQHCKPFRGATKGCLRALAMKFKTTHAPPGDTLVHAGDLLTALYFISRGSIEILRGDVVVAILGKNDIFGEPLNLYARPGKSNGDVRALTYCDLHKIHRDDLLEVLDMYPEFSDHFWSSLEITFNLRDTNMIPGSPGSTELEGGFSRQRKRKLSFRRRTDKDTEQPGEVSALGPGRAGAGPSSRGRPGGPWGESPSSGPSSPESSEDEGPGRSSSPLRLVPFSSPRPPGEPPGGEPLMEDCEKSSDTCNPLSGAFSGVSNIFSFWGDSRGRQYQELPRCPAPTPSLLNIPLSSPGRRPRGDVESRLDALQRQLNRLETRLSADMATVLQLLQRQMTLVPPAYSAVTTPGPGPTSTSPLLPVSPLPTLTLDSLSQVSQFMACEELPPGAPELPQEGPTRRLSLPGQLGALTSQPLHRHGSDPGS
smiles,measurement,value
COc1cc(N)c(Cl)cc1C(=O)NC1CCN(CCCOc2ccc(F)cc2)CC1OC (stereo not shown) [Cisapride monohydrate],specificity of block for hERG potassium ion channels,specific blocker for hERG potassium ion channels

# Source: patent US11016100B2, “Methods for identifying modulators of ion channels” (X-Body, Inc., priority 2007, dated 2021)
